# From patent publication US6602888B2, “Use of α1C specific compounds to treat benign prostatic hyperplasia” (Synaptic Pharmaceutical Corporation, priority 1992, dated 2003)
# By UniProt entry, the sequences of proteins in these tests, tags left out.
# UniProt P22002, whole entry: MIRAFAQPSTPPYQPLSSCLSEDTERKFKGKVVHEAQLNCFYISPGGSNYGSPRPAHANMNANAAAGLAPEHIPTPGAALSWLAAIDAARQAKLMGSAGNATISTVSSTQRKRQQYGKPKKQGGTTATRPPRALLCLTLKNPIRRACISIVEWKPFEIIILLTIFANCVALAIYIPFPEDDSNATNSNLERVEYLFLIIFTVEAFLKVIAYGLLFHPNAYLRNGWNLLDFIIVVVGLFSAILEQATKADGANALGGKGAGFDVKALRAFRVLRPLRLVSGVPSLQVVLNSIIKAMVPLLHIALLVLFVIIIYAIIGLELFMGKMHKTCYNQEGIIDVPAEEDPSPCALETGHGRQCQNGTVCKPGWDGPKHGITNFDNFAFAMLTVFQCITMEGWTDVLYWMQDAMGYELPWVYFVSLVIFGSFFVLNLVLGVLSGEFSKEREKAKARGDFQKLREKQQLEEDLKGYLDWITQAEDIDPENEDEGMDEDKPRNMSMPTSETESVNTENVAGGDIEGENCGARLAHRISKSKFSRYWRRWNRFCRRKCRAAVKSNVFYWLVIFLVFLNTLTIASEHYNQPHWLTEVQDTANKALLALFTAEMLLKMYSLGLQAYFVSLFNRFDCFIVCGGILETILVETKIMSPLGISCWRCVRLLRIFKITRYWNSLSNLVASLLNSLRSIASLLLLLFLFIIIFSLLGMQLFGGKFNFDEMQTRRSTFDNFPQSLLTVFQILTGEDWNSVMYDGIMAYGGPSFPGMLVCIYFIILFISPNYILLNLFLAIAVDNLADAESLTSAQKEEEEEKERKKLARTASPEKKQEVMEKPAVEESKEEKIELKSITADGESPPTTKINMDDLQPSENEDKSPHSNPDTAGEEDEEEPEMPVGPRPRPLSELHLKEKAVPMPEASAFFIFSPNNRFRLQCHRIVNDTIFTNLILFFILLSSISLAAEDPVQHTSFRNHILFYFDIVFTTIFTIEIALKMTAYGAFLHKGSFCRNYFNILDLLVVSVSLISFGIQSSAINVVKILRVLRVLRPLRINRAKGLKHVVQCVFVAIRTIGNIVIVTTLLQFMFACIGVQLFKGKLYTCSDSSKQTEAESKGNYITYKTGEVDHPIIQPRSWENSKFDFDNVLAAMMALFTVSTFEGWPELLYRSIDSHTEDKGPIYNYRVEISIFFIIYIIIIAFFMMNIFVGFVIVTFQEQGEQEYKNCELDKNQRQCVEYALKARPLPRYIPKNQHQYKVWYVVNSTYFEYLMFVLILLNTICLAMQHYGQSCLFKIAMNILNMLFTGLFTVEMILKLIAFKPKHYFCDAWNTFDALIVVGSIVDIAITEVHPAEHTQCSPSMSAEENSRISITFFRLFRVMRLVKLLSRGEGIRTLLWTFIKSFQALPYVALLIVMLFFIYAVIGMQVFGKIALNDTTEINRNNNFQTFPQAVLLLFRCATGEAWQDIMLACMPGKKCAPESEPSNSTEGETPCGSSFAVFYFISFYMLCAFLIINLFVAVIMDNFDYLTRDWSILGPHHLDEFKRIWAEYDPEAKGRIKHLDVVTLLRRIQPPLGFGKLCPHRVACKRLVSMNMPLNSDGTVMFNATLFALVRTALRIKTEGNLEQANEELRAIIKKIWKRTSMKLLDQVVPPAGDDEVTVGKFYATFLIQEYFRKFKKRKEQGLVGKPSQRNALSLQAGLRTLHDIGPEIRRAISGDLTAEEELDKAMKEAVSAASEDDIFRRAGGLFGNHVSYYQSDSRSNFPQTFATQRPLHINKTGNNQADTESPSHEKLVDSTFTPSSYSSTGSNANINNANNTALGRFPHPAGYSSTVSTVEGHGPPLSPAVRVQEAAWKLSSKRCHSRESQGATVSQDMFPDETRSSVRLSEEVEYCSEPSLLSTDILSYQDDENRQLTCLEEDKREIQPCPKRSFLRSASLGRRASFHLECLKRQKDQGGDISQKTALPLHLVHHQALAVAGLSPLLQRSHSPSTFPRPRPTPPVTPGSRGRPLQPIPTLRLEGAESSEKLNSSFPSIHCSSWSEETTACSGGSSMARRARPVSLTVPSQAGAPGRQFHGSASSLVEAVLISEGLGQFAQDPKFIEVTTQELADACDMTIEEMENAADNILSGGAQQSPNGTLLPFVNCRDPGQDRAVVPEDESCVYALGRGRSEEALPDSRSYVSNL
# UniProt P14416, whole entry: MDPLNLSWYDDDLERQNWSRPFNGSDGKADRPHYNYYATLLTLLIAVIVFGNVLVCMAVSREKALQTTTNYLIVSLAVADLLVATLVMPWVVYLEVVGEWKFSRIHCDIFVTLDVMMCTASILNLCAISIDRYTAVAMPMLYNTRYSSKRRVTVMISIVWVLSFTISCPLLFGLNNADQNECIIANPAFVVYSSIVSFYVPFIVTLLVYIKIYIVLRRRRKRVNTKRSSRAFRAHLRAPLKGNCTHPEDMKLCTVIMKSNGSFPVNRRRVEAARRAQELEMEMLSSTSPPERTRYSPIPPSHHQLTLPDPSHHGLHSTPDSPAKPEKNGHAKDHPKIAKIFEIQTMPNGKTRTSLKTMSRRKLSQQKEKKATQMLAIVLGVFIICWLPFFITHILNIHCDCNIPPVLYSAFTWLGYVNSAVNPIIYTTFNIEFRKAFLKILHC
# UniProt P25021, whole entry: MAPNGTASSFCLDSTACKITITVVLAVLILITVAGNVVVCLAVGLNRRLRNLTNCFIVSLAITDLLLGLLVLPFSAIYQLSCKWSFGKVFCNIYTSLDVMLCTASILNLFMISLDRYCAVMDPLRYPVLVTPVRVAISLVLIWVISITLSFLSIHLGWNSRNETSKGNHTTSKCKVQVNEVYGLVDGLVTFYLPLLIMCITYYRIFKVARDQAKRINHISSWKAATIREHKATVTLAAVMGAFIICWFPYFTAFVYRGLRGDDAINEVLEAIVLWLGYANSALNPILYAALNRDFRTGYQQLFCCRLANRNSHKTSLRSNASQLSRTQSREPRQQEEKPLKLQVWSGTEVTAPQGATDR
# UniProt P35367, whole entry: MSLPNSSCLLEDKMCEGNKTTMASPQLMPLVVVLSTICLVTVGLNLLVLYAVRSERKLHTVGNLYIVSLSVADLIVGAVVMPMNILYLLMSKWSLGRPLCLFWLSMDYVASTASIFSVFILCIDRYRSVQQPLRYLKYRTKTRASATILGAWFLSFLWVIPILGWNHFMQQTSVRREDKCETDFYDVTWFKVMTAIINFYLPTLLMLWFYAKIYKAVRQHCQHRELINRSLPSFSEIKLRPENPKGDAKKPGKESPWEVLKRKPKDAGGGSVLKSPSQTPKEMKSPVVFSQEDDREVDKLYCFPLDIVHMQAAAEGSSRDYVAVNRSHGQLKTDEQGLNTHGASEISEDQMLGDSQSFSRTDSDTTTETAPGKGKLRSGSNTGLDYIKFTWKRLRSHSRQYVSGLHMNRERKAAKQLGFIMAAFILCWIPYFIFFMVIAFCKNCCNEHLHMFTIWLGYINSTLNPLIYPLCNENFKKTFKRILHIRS
# UniProt P28223, whole entry: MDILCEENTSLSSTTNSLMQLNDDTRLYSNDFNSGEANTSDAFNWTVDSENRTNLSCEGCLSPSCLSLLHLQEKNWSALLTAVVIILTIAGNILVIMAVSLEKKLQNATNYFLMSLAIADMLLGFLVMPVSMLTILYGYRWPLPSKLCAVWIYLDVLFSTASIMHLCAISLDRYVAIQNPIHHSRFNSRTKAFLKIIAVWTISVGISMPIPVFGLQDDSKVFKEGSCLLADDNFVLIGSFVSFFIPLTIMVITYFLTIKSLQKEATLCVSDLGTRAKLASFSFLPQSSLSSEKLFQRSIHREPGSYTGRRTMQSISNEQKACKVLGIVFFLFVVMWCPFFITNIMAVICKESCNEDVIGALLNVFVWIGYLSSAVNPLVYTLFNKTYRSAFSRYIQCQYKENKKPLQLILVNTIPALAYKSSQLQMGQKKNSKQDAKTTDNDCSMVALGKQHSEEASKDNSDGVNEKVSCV
# Experiments:
# calcium channels = target: T1, calcium channels (Rattus norvegicus, UniProt P22002); test: [3H]nitrendipine competition binding, calcium channels, rat cardiac muscle membranes
# T1 construct: from tissue; host or cells: rat cardiac muscle membranes
# human D2 receptor = human D2 receptor (Homo sapiens, UniProt P14416); test: [3H]spiperone binding, dopamine D2 receptor
# [1] = target: human histamine H2 receptor (Homo sapiens, UniProt P25021); test: [3H]tiotidine binding, histamine H2 receptor
# [2] = target: human histamine H1 receptor (Homo sapiens, UniProt P35367); test: [3H]mepyramine binding, histamine H1 receptor
# human 5HT2 receptor = human 5HT2 receptor (Homo sapiens, UniProt P28223); test: [3H]ketanserin competition binding, 5HT2 receptor
substance,measurement,setting,value
S-niguldipine,Calcium Channel (pK1),calcium channels,8.04
same,Dopamine D2 (pK1),human D2 receptor,<7.0
same,Histamine H2 (pK1),[1],6.24
same,Histamine H1 (pK1),[2],6.78
same,Serotonin 5HT2 (pK1),human 5HT2 receptor,<7.0
